In this assay the target is T1, hPR (Homo sapiens, UniProt P06401).
T1 sequence (P06401 1-933): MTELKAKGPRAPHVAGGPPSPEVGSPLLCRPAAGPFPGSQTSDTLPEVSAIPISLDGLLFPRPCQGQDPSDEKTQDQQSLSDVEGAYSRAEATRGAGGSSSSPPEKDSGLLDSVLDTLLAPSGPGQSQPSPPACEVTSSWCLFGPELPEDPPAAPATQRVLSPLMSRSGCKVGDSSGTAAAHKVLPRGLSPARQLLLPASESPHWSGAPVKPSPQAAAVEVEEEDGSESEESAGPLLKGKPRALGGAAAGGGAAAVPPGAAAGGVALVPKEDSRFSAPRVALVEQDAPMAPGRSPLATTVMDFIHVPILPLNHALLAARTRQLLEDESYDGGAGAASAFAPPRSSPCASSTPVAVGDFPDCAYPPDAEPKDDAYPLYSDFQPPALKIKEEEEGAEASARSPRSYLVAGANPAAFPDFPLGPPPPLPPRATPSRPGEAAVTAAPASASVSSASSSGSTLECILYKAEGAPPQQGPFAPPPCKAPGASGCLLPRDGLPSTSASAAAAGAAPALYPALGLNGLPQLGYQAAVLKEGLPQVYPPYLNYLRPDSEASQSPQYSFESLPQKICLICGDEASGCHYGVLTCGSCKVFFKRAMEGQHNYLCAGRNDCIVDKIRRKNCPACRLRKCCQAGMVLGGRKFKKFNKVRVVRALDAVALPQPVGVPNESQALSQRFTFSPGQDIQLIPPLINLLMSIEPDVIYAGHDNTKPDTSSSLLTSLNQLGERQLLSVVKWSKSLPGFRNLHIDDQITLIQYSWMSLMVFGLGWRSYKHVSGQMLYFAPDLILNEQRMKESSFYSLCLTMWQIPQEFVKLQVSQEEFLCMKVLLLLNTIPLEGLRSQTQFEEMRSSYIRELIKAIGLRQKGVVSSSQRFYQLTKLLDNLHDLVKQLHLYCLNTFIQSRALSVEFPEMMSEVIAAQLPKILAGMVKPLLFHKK
Description: hPR cotransfection assay in CV-1 cells, agonist mode. Particulars: Tables 3 and 4, values without footnote; read-out: hPR agonist potencies (EC50 in nM) in the cotransfection assay. The assay is classed as cell-based.

Structures are written as SMILES.

Regarding `CCCCC1Oc2ccc(OC)cc2-c2ccc3c(c21)C(C)=CC(C)(C)N3` (stereo not shown) [Formula I X=9-OMe Bu, reference compound], the EC50 was 9 nM.

The term EC50 denotes the concentration needed to bring the measured effect to its halfway point.
